Data from PMC2736550 (Molecular microbiology, 2008).

How the values were obtained:
Experiment in all cases: biochemical
Hma = Hma (Escherichia coli, UniProt A0A0H2V8J2)
ChuA = ChuA (Escherichia coli, UniProt A0A0H2VC22)
IutA = IutA (Escherichia coli, UniProt A0A0H2VAM3)

**Q.** `C=CC1=C(C)C2=Cc3c(C=C)c(C)c4[n]3[Fe]([Cl])[n]3c(c(C)c(CCC(=O)O)c3=CC3=NC(=C4)C(C)=C3CCC(=O)O)=CC1=N2` [hemin] was tested. Which Kd (Hma) did it give?
**A.** 8 µM

**Q.** What about the Kd (ChuA) of the same compound?
**A.** 8 µM

**Q.** What about the Kd (IutA) of the same compound?
**A.** 90 µM
